For this test, the target named is CCKB receptor (Cavia porcellus, UniProt H0VZC5). The test is described as follows: 125I-CCK-8 receptor binding assay, CCKB (guinea pig cerebral cortex membranes). The protocol: Pharmacological Methods—^[125]I-CCK-8 Receptor Binding Assay
CCKA and CCKB receptor binding assays were performed, by using guinea pig cerebral cortex (CCKB) or rat pancreas (CCKA). Male guinea pig brain tissues were prepared according to the modified method described by Saita et al, [(1994), Characterization of YM022: its CCKB/gastrin receptor binding profile and antagonism to CCK-8-induced Ca2+mobilization., Eur. J. PharmacoL,269, 249-254]. Pancreatic membranes were prepared in a similar way but by Charpentier et al, [(1988), Cyclic cholecystokinin analogues with high selectivity for central receptors., Proc Natl Acad Sci USA, 85, 1968-1972]. For the in vivo CCK binding assay tissues were homogenised in ice cold sucrose (0.32 M, 25 ml) for 15 strokes at 500 rpm and centrifuged at 13000 rpm for 10 mins. The supernatant was re-centrifuged at 13000 rpm for 20 mins. The resulting pellet was re-dispersed to the required volume of buffer at 500 rpm and stored in aliquots at […].
Binding was achieved using a.radioligand ^125I-Bolton-Hunter labeled CCK, NEN at 25 pM. The samples were incubated {with membranes (0.1 mg/ml)} in 20 mM Hepes, 1 mM EGTA, 5 mM MgCl2, 150 mm NaCl, 0.25 mg/ml bacitracin at pH 6.5 for 2 hrs at RT and then […] by centrifugation at 1100 rpm for 5 minutes. The membrane pellets were washed twice with water and the bound radioactivity was measured in a Packard Cobra Auto-gamma counter (B5005). All binding assays were carried out with L-365, 260 (Bock, M. G., et. al., Benzodiazepine gastrin and brain cholecystokinin receptor ligands. L-365,260, J. Med. Chem. 1989, 32, 14-24) as an internal non-specific standard. Controls (no compound) were also added. All samples were made in duplicate and repeated twice. All compounds were initially screened for percentage inhibition at 20 μm. Samples showing an average inhibition of <35% were diluted to 2μm and re-screened and if active diluted again.

Protein sequences, listed by entry. Tags and fused reporters are not part of them. Residues count along the entry.
UniProt H0VZC5, 1-426: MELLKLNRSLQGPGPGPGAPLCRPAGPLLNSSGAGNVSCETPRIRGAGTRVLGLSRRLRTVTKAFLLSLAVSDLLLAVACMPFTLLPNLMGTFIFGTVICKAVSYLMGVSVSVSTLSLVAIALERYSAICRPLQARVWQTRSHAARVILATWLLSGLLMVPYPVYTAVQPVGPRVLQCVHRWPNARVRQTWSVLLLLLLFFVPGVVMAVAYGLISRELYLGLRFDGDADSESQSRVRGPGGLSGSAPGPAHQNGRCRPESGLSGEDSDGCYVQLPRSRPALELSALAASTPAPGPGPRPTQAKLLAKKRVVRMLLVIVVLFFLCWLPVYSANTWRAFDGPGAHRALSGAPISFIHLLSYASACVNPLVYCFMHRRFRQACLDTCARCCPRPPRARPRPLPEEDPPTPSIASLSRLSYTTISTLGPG

The mark [1] stands for this setting: read-out: IC50 CCKB, Table 1, phenyl pyrazolinone ureas, 125I-Bolton-Hunter CCK 25 pM.

Like-named read-outs stand apart in the source and are kept apart here.

Experimental findings from US20070185115A1, “Novel ureido-and amido-pyrazolone derivatives” (Aston University, priority 2003, published 2007) are described below.

What is called IC50 is the concentration that gives 50% inhibition.

Consider `Cc1c(NC(=O)NC(C)(C)C)c(=O)n(-c2ccccc2)n1C`, for which the IC50 under setting [1] turned out to be 8 µM.
Same read-out and setting: to `Cc1ccccc1NC(=O)Nc1c(C)n(C)n(-c2ccccc2)c1=O` belongs 7 µM; to `Cc1c(NC(=O)Nc2ccc([N+](=O)[O-])cc2)c(=O)n(-c2ccccc2)n1C`, > 20 µM.
Take `Cc1c(NC(=O)Nc2ccc([N+](=O)[O-])cc2)c(=O)n(-c2ccccc2)n1-c1ccccc1`: the IC50 (read-out: IC50 CCKB, Table 3, diphenyl pyrazolyl ureas, 125I-Bolton-Hunter CCK 25 pM) is > 20 µM.
As for `COc1cccc(NC(=O)Nc2c(C)n(C)n(-c3ccccc3)c2=O)c1`, the IC50 under setting [1] was > 10 µM.
